Target: Gamma-aminobutyric acid receptor subunit alpha-4 (Rattus norvegicus, UniProt P28471)

Amino acid sequences for entries named in this document (tags omitted).
UniProt P28471, whole entry: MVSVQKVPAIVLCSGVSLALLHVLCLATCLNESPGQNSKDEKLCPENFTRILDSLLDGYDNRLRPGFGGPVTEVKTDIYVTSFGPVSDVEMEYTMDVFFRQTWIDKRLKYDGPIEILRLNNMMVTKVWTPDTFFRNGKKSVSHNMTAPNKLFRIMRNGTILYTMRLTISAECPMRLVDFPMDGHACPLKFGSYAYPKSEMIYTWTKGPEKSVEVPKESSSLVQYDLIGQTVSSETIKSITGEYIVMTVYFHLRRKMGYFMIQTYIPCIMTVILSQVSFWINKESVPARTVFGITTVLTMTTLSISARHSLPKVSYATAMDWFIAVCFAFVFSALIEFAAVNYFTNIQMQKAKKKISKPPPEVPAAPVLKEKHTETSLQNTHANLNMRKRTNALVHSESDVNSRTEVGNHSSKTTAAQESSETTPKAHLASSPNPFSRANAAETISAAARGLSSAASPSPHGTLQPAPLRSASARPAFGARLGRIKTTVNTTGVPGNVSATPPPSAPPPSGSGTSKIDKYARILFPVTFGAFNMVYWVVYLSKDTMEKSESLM

CCOC(=O)c1ncn2c1CN(C)C(=O)c1cc(N=[N+]=[N-])ccc1-2 [RO-154513]
Ki: 3.4 nM

Source: BindingDB's records for doi:10.1016/s0028-3908(96)00054-8 (National Institute of Diabetes, Digestive and Kidney …, 1996)
